Sampled rows, rich in hits. Any-hit rate of the full collection: about 1.2%.
Arrestin-AP2 inh = inhibitors of beta-arrestin/AP2 binding, primary screen, biochemical, GPCR trafficking, flow cytometry | beta-arrestin 1 C-terminal peptide binding to AP2 beta2-adaptin appendage (human) | FITC-arrestin peptide / GST-AP2 beads; AP2 beta2 appendage carries R879A mutation | inhibition, % at 10 µM | 0.31% of 340,000 active | AID 504490, 2011;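 active means inhibition above a set limit, near 3 SD of compounds lacking own fluorescence, cut at about 54% in these data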;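 further: plate controls were DMSO wells for no effect and 5 µM unlabelled arrestin peptide for full effect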
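System: GST-AP2 R879A glutathione beads | Also added: FITC-arrestin peptide, 50 nM | Times: 12 min plus 1 h, RT | Signal: Bead flow cytometry, FITC channel | Buffer or medium: PBS with 0.05% Tween 20 and 0.1% BSA | Read-out basis: Percent drop in bead-associated FITC signal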
Rce1 inh = yeast Rce1p protease inhibitors, primary screen, biochemical, fluorescence, cell-free homogeneous; CAAX prenyl protease 2 (Saccharomyces cerevisiae (strain ATCC 204508 / S288c)), Q03530; yeast membranes, quenched prenylated peptide cleavage fluorescence; calls only; 0.27% of 290,000 active;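 active means fall in fluorescence gain of 50% or more versus controls, with final raw signal at or below 3038400; inconclusive means same 50% fall but final raw signal above 3038400; inactive means fall in fluorescence gain under 50%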;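 further: plate controls were neutral control wells for no effect and wells lacking membranes for full effect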
Pemphigus Ab inh = inhibitors of pemphigus antibody binding to DSG3, primary screen, biochemical, bead-based, flow cytometry, scFv-GFP | Desmoglein-3 (Homo sapiens), P32926 | DSG3-coupled beads, scFv-anti-DSG3-GFP binding; hits give low values | binding (percent of control), % at 10 µM | 0.48% of 310,000 active | AID 588358, 2011;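 active means binding more than 3 SD below its plate's average and above zero; inconclusive means below that plate limit but binding exactly zero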;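 further: hits lower antibody fragment binding to DSG3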
Yeast UUG start = modulators of start codon recognition fidelity in yeast. S. cerevisiae UUG-firefly luciferase reporter, luminescence/redox ratio. activity score, % at 18.7 µM. 350,000 tested, 0.13% active;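 active = replicate mean at a twofold rise or more, about +100% in these data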;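 note: firefly luciferase made from a UUG start codon reports start codon fidelity; reporter light over untreated wells divided by growth signal over untreated wells; some hits fall short of that in this replicate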
TbMetRS inhib = T. brucei MetRS inhibitors, primary screen, biochemical, luminescence; methionyl-tRNA synthetase (Trypanosoma brucei brucei); purified T. brucei MetRS, ATP depletion, Kinase-Glo luminescence; inhibition, % at 11.9 µM; 0.4% of 360,000 active; AID 624268, 2012;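 active means inhibition above a per-plate cutoff of the control wells' mean inhibition plus 3 SD, cut at about 5.5% in these data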;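 further: 0% = DMSO wells median and 100% = median of wells with control inhibitor compound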
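Assay system: T. brucei methionyl-tRNA synthetase, purified | Medium: HEPES buffer with MgCl2, KCl, DTT, spermine, BSA, pyrophosphatase | Compound: 11.9 µM single point | Incubation: 15 min enzyme-compound preincubation, 2 h reaction, 10 min detection, 25 °C | Measured by: Kinase-Glo luciferase luminescence reporting remaining unconsumed ATP | Measure: % inhibition normalized to control-well medians | Replication: Singlicate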
Arr-AP2 CP1 = inhibitors of arrestin peptide binding to AP2, confirmation, biochemical, cherry pick 1, flow cytometry beads; shares compounds with Arrestin-AP2 inh; GST-AP2 beads, FITC arrestin peptide binding; GST-fused beta2-adaptin appendage, R879A mutant; inhibition, % at 10 µM; 2% of 1,300 active;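 active means inhibition above a set limit, roughly 3 SD of non-fluorescent compound noise, cut at about 38% in these data; inactive means inhibition at or below that limit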;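 further: loss of bead fluorescence from 50 nM FITC arrestin peptide bound to appendage; 0% = negative control wells and 100% = excess unlabelled arrestin peptide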
GST-FITC bead = GST-fluorescein capture on glutathione beads, confirmation, artefact control for arrestin-AP2 inhibitor project, biochemical, cherry pick 1, flow cytometry; shares compounds with Arrestin-AP2 inh; GST-fluorescein binding to GSH beads, fluorescence, counter-screen; inhibition, % at 10 µM; 2% of 1,300 active;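 active means inhibition above 50%, about 3 SD of the inhibition seen with non-fluorescent compounds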;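 further: fluorescein maleimide labelled GST captured on 4 micron glutathione beads; higher means more loss of bead fluorescence from quenching or blocked binding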
The depositor's hits bear a star; i = inactive; u = inconclusive; x = not tested or not shown.

Molecule,Rce1 inh,GST-FITC bead,Arrestin-AP2 inh,Yeast UUG start,Pemphigus Ab inh,TbMetRS inhib,Arr-AP2 CP1
CC1CC(C)CN(c2oc(-c3ccccc3Cl)nc2C#N)C1 (stereo not given),i,-1.1,118.0*,-13.4,101.1,0.3,13.9
Cc1ccc(N2C(=O)NC(NC(=O)C(C)(C)C)(C(F)(F)F)C2=O)cc1C (stereo not given),i,1.9,55.8*,1.0,100.2,-0.7,-1.8
COc1ccc(N2C(=O)NC(NC(=O)C(C)(C)C)(C(F)(F)F)C2=O)cc1 (stereo not given),i,x,39.9,-10.7,95.5,-0.5,x
C[C@@H]1CN([C@H](C)CO)C(=O)CCCn2cc(nn2)CO[C@@H]1CN(C)S(=O)(=O)c1ccccc1F,x,x,x,7.9,x,x,x
O=C(NCC[C@@H]1CC[C@H](NS(=O)(=O)c2ccc(F)cc2)[C@@H](CO)O1)Nc1ccc(F)cc1,x,x,x,-7.2,x,x,x
O=c1oc2ccccc2c2c1C(c1ccc(Cl)cc1)Nc1ccc3ccccc3c1-2 (stereo not given),i,-1.0,84.7*,-3.7,93.3,-0.5,-5.4
CNc1ccc(C(=O)OCC(=O)NCc2ccc3c(c2)OCO3)cc1[N+](=O)[O-],x,1.0,95.6*,-15.8,x,-0.3,-3.1
CCOC(=O)C(=Cc1ccc(OCc2ccc([N+](=O)[O-])cc2)c(OC)c1)C(=O)OCC,i,-6.2,81.5*,x,99.0,0.3,-21.4
CCOC(=O)Cn1c(=NC(=O)c2cccs2)sc2cc(C(=O)OC)ccc21,i,x,106.4*,x,18.0*,0.3,-4.9
CCOC(=O)c1ccc2c(c1)sc(=NC(=O)c1ccco1)n2CCOC,i,x,-0.3,-0.9,66.2,-0.3,x
C[C@H]1CCCCO[C@H](CN(C)Cc2ccc(C(=O)O)cc2)[C@@H](C)CN([C@@H](C)CO)C(=O)c2cc(NS(C)(=O)=O)ccc2O1,x,x,x,6.8,x,x,x
Cc1ccc(NC(=O)c2ccc(CSc3nnc(-c4ccncc4)n3C)cc2)cc1,i,7.5,85.1*,-19.6,103.1,-0.2,2.5
O=C(CN1c2ccccc2S(=O)(=O)c2ccccc21)NCc1ccccc1,i,-3.8,63.9*,6.0,u,-0.7,-6.0
O=C(CN1c2ccccc2S(=O)(=O)c2ccccc21)NCc1ccc(F)cc1,i,x,-31.2,-4.6,113.3,-0.2,x
COc1ccc(-c2nn(-c3ccccc3)cc2C(=O)O)cc1,i,x,-5.7,-16.2,96.6,-0.5,x
COc1ccc(-c2nn(-c3ccccc3)cc2C(=O)N(C)C)cc1,i,-7.2,59.8*,-1.5,99.4,-0.6,-8.3
Cc1onc(-c2ccccc2Cl)c1C(=O)NCC1CCCO1 (stereo not given),i,x,21.0,-13.6,101.9,-1.1,x
O=C(NCC1CCCO1)c1ccc(-c2ccccc2Cl)o1 (stereo not given),i,-6.9,62.2*,-8.1,102.7,-0.5,0.7
C[C@@H]1CCCCO[C@@H](CN(C)C(=O)Nc2ccc3c(c2)OCO3)[C@@H](C)CN([C@H](C)CO)C(=O)c2cc(NC(=O)Nc3ccccc3)ccc2O1,x,x,x,0.0,x,x,x
CCn1nc(NS(=O)(=O)c2cccc3nonc23)c2cc3ccc(C)cc3nc21,i,8.3,67.7*,0.7,102.2,0.1,-2.1
CC(C)Cn1nc(NS(=O)(=O)c2cccc3nonc23)c2cc3ccccc3nc21,i,x,2.3,-10.1,104.1,0.6,x
CO[C@H]1CN(C)C(=O)c2ccc(NC(=O)C3CCC3)cc2OC[C@H](C)N(Cc2ccncc2)C[C@@H]1C,x,x,x,-7.0,x,x,x

An excerpt from above in order of heavy-atom count, rising.
Molecule,Rce1 inh,GST-FITC bead,Arrestin-AP2 inh,Yeast UUG start,Pemphigus Ab inh,TbMetRS inhib,Arr-AP2 CP1
O=C(CN1c2ccccc2S(=O)(=O)c2ccccc21)NCc1ccccc1,i,-3.8,63.9*,6.0,u,-0.7,-6.0
CNc1ccc(C(=O)OCC(=O)NCc2ccc3c(c2)OCO3)cc1[N+](=O)[O-],x,1.0,95.6*,-15.8,x,-0.3,-3.1
C[C@H]1CCCCO[C@H](CN(C)Cc2ccc(C(=O)O)cc2)[C@@H](C)CN([C@@H](C)CO)C(=O)c2cc(NS(C)(=O)=O)ccc2O1,x,x,x,6.8,x,x,x
